Measurements: ChEMBL document CHEMBL5247635 (Eur J Med Chem, 2022)

What was measured:
[1] = molecular target: Trypanothione reductase (Leishmania infantum) (UniProt A4HSF7); assay: Disruption of HIS-FLAG-tagged recombinant Leishmania infantum TryR dimerization expressed in Escherichia coli Rossetta BL21 (DE3) cells at 75 uM incubated for 16 hrs by ELISA analysis relative to control
[2] = Selectivity ratio of IC50 for inhibition of HIS-tagged recombinant Trypanosoma brucei TryR oxidoreductase activity expressed in Escherichia coli to IC50 for inhibition of HIS-tagged recombinant Leishmania infantum TryR oxidoreductase activity expressed in Escherichia coli
[3] = Selectivity ratio of IC50 for inhibition of HIS-tagged recombinant Trypanosoma cruzi TryR oxidoreductase activity expressed in Escherichia coli to IC50 for inhibition of HIS-tagged recombinant Leishmania infantum TryR oxidoreductase activity expressed in Escherichia coli

Row | Compound | inhibition [1] | Ratio IC50 [2] | Ratio IC50 [3]
1 | C[n+]1nn(-c2ccc(-c3nc(CCc4ccc5ccccc5c4)cs3)c(OCCN3CCNC3=O)c2)cc1CCCCN.O=C(O)C(F)(F)F.O=S(=O)([O-])C(F)(F)F | 29% | 1.5 | 3
2 | C[n+]1nn(-c2ccc(-c3nc(CCc4ccc(-c5ccccc5)cc4)cs3)c(OCCN3CCNC3=O)c2)cc1CCCCN.O=C(O)C(F)(F)F.O=S(=O)([O-])C(F)(F)F | – | 1.5 | 3
